Literature values as cited in PMC9186491, “Novel Small Molecule Tyrosine Kinase 2 Pseudokinase Ligands Block Cytokine-Induced TYK2-Mediated Signaling Pathways” (Frontiers in Immunology, 2022).

Test system: moderate to severe psoriasis patients
Design: method as in PMID 30205746
Conditions: phase II, 267 patients, placebo group 51%; cited from earlier work

In the case of Deucravacitinib, the “Most common adverse events in treated patients” value is given as 55-80%.
